From ChEMBL document CHEMBL4680122, “Design, synthesis and biological evaluation of new Axl kinase inhibitors containing 1,3,4-oxadiazole acetamide moiety as novel linker” (Eur J Med Chem, 2020)

How the values were obtained:
Homo sapiens [1] = species on record: Homo sapiens; experiment: Selectivity ratio of IC50 for inhibition of human N-terminal GST-fused FLT3 cytoplasmic domain (564 to 993 residues) expressed in baculovirus expression system to IC50 for inhibition of human N-terminal GST-fused Axl cytoplasmic domain (464 to 885 residues) expressed in baculovirus expression system
Homo sapiens [2] = species on record: Homo sapiens; experiment: Selectivity ratio of IC50 for inhibition of human His-tagged PDGFRB cytoplasmic domain expressed in baculovirus expression system to IC50 for inhibition of human N-terminal GST-fused Axl cytoplasmic domain (464 to 885 residues) expressed in baculovirus expression system
Homo sapiens [3] = species on record: Homo sapiens; experiment: Selectivity ratio of IC50 for MER (unknown origin) to IC50 for inhibition of human N-terminal GST-fused Axl cytoplasmic domain (464 to 885 residues) expressed in baculovirus expression system
Homo sapiens [4] = species on record: Homo sapiens; experiment: Selectivity ratio of IC50 for TYRO3 (unknown origin) to IC50 for inhibition of human N-terminal GST-fused Axl cytoplasmic domain (464 to 885 residues) expressed in baculovirus expression system

Measured: Ratio IC50

COc1cc2c(Oc3ccc(NC(=O)C4(c5nnc(-c6ccc(F)cc6)o5)CC4)cc3F)ccnc2cc1OCCCN1CCCCC1
> 10: Homo sapiens [1] | Homo sapiens [2] | Homo sapiens [3] | Homo sapiens [4]
